What was measured:
Format in all cases: biochemical
[1] = target: SARS-CoV-2 nsp14 N7-MTase (Severe acute respiratory syndrome coronavirus 2, UniProt P0DTD1); assay: Py-FLINT fluorescence assay of nsp14 N7-MTase
SARS-CoV-2 PL^pro = SARS-CoV-2 PL^pro (Severe acute respiratory syndrome coronavirus 2, UniProt P0DTD1); assay: IC50 determination for SARS-CoV-2 PLpro (Ac-LRGG-ACC substrate); settings: 100 nM enzyme, 10 µM substrate, 30 min incubation at 37 °C, non-reducing
SARS-CoV-2 M^pro = SARS-CoV-2 M^pro (Severe acute respiratory syndrome coronavirus 2, UniProt P0DTD1); assay: IC50 determination for SARS-CoV-2 Mpro (QS1 substrate); settings: read-out: SARS-CoV-2 M^pro IC50; 100 nM enzyme, 50 µM substrate, 2 min incubation at room temperature, non-reducing

Structure (SMILES) | IC50 [1] [µM] | IC50 (SARS-CoV-2 PL^pro) [µM] | IC50 (SARS-CoV-2 M^pro) [µM]
O=c1c2ccccc2[se]n1-c1ccc([N+](=O)[O-])cc1 [Compound 10] | 3.08 ± 0.46 | 1.89 ± 0.1 | 0.0279 ± 0.0051
COc1ccc(-n2[se]c3ccccc3c2=O)c(OC)c1 [Compound 16] | 0.42 ± 0.04 | 0.99 ± 0.06 | 0.0525 ± 0.00451
O=c1c2ccccc2[se]n1-c1cc(Cl)ccc1F [Compound 17, 2-(5-chloro-2-fluorophenyl)-1,2-benzisoselenazol-3(2H)-one] | 3.83 ± 0.35 | 2.07 ± 0.08 | 0.0152 ± 0.00458
Cc1ccc(Cl)cc1-n1[se]c2ccccc2c1=O [Compound 20] | – | 1.04 ± 0.08 | 0.0378 ± 0.00328

Reference: paper PMC10242237 (Scientific Reports, 2023)
